Test results taken from ChEMBL document CHEMBL1135488, “Prediction of volume of distribution values in humans for neutral and basic drugs using physicochemical measurements and plasma protein binding data” (J Med Chem, 2002).

Experiment: Ionisation constant (pKa)
Type: physicochemical

SMILES: Cc1nc2n(c(=O)c1CCN1CCC(c3noc4cc(F)ccc34)CC1)CCCC2 [RISPERIDONE]
- pKa: 7.91
